The record followed here is article PMC2409716 (British Journal of Cancer, 2004).

The structures appear in SMILES notation.

A short description of this series: Noncompartmental plasma pharmacokinetics of irinotecan and SN-38 with/without R115777. The conditions noted are these: over the dose ranges studied (P=0.43).

As for `CCc1c2c(nc3ccc(OC(=O)N4CCC(N5CCCCC5)CC4)cc13)-c1cc3c(c(=O)n1C2)COC(=O)[C@]3(O)CC` [irinotecan], the “AUC and peak plasma concentrations versus dose” value was “increased in proportion with dose”.
